# Tests used:
# Amino acid sequences for entries named in this document (tags omitted). A change or cut given only in a name is not applied to a line headed by its entry.
# UniProt P11802: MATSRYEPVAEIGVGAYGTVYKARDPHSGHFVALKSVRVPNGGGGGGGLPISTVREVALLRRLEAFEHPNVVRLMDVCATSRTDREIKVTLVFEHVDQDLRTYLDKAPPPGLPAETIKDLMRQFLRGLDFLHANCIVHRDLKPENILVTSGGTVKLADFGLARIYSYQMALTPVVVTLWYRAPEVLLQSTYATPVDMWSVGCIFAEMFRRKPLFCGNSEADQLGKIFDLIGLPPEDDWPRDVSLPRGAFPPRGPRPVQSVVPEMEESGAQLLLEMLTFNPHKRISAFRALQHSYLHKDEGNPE
# UniProt Q00534, whole entry: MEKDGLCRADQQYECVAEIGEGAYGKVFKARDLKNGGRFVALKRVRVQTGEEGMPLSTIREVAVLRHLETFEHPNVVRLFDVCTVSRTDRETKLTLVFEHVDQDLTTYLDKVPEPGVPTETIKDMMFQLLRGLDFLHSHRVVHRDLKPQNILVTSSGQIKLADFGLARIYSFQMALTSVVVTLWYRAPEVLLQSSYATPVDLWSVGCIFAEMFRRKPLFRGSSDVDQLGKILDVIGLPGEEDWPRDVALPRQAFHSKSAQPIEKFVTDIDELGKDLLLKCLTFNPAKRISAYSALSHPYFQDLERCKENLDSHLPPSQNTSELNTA
# Cdk4/CyclinD1 = Cdk4/CyclinD1 (Homo sapiens (Human), UniProt P11802); experiment: Cdk4 kinase inhibition assay with recombinant Cdk4/CyclinD1, Rb substrate, [33P]-ATP filter plate; format: biochemical; conditions: 25 μM ATP, read-out: Cdk 4 IC50
# Protocol: (§1) The Cdk4 and Cdk6 inhibitory activity of the compounds is measured with a kinase inhibition assay using recombinant Cdk4/CyclinD1 or Cdk6/CyclinD3 protein complexes. The protein substrate used in the assay is the retinoblastoma protein (Rb). The kinase reactions are carried out in a 96-well filter plate (MSDV N6B50, Millipore). […] The mixture is incubated at room temperature for 1 hour and the proteins precipitated with an equal volume of 20% TCA. The plates are washed with 10% TCA according to the manufacturer's instruction and dried at room temperature. The amount of the phosphorylated Rb is determined with a TopCount (PerkinElmer). The IC50 of a compound is determined by nonlinear regression curve fitting using software program Prism 5 (GraphPad Software).
# Cdk6/CyclinD3 = Cdk6/CyclinD3 (Homo sapiens (Human), UniProt Q00534); experiment: Cdk6 kinase inhibition assay with recombinant Cdk6/CyclinD3, Rb substrate, [33P]-ATP filter plate; format: biochemical; conditions: 25 μM ATP, read-out: Cdk 6 IC50
# Protocol: as §1
Compound,IC50 (Cdk4/CyclinD1) [nM],IC50 (Cdk6/CyclinD3) [nM]
"CN(C)[C@@H]1CN(c2ccc(Nc3ncc4c5ccncc5n(C5CCCC5)c4n3)nn2)CC[C@H]1O (single isomer, unassigned) [Example 258b, (3R*,4R*)-1-(6-((9-Cyclopentyl-9H-pyrido[4′,3′:4,5]pyrrolo[2,3-d]pyrimidin-2-yl)amino)-3-pyridazinyl)-3-(dimethylamino)-4-piperidinol]",5,24
"c1ccc(-n2c3cnccc3c3cnc(Nc4ccc(N5CCNCC5)cc4)nc32)cc1 [Example 17, (9-Phenyl-9H-pyrido[4′,3′:4,5]pyrrolo[2,3-d]pyrimidin-2-yl)-(4-piperazin-1-yl-phenyl)amine]",–,0.36
"c1cc2c3cnc(Nc4ccc(N5CCNCC5)cn4)nc3n(C3CCCCC3)c2cn1 [Example 23, (9-Cyclohexyl-9H-pyrido[4′,3′,4,5]pyrrolo[2,3-d]pyrimidin-2-yl)-(5-piperazin-1-yl-pyridin-2-yl)-amine]",–,13.1
"c1cc2c3cnc(Nc4ccc(N5CCNCC5)cc4)nc3n(C3CC4CCC3C4)c2cn1 (centres unmarked) [Example 40, (9-Bicyclo[2.2.1]hept-2-yl-9H-pyrido[4′,3′:4,5]pyrrolo[2,3-d]pyrimidin-2-yl)-(4-piperazin-1-yl-phenyl)-amine]",4.9,–
"CN(C)C1CCN(c2ccc(Nc3ncc4c5ccncc5n(C5CCCC5)c4n3)cn2)CC1 [Example 56, 9-cyclopentyl-N-(6-(4-(dimethylamino)-1-piperidinyl)-3-pyridinyl)-9H-pyrido[4′,3′:4,5]pyrrolo[2,3-d]pyrimidin-2-amine]",0.97,–
CN(c1ccc(Nc2ncc3c4ccncc4n(C4CCCC4)c3n2)nc1)C1CCCNC1 (centres unmarked) [Example 68],4.1,–
c1cc2c3cnc(Nc4ccc(NCC5CCCNC5)cn4)nc3n(C3CCCC3)c2cn1 (centres unmarked) [Example 71],4.1,–
c1cc2c3cnc(Nc4ccc(N[C@@H]5CCNC5)nn4)nc3n(C3CCCC3)c2cn1 [Example 91],–,11.2
F[C@@H]1CCN(c2ccc(Nc3ncc4c5ccncc5n(C5CCCC5)c4n3)nn2)C1 [Example 119],5.1,–
"OCCN1CCN(c2ccc(Nc3ncc4c5ccncc5n(C5CCCC5)c4n3)nc2)CC1 [Example 191, 2-(4-(6-((9-Cyclopentyl-9H-pyrido[4′,3′:4,5]pyrrolo[2,3-d]pyrimidin-2-yl)amino)-3-pyridinyl)-1-piperazinyl)ethanol]",–,4.9
"COC(=O)N1CCN(c2ccc(Nc3ncc4c5ccnc(F)c5n(C5CCCC5)c4n3)nc2)CC1 [Example 192, Methyl 4-(6-((9-cyclopentyl-8-fluoro-9H-pyrido[4′,3′:4,5]pyrrolo[2,3-d]pyrimidin-2-yl)amino)-3-pyridinyl)-1-piperazinecarboxylate]",26.2,–
"c1cc2c3cnc(Nc4ccc(CN5CCNCC5)cn4)nc3n(C3CCCC3)c2cn1 [Example 212, 9-cyclopentyl-N-(5-(1-piperazinylmethyl)-2-pyridinyl)-9H-pyrido[4′,3′:4,5]pyrrolo[2,3-d]pyrimidin-2-amine]",34,33
"O=S1(=O)CC=C(c2ccc(Nc3ncc4c5ccncc5n(C5CCCC5)c4n3)nc2)CC1 [Example 265, 9-Cyclopentyl-N-(5-(1,1-dioxido-3,6-dihydro-2H-thiopyran-4-yl)-2-pyridinyl)-9H-pyrido[4′,3′:4,5]pyrrolo[2,3-d]pyrimidin-2-amine]",2.2,2.2
CN(CCO)c1ccc(Nc2ncc3c4ccncc4n(C4CCCC4)c3n2)nn1 [Example 291],–,6.9

# Source: US8841312B2, “Fused pyridine, pyrimidine and triazine compounds as cell cycle inhibitors” (Amgen Inc., priority 2007, dated 2014)
